We go through four compounds from patent publication US7192924B2, “Corticotropin releasing factor 2 receptor agonists” (priority 2002, dated 2007).

Read-outs that look alike come from different tables or passages of the source.

The target of one test is T1, CRF1R (Homo sapiens, UniProt P34998).
T1 sequence (P34998 24-415): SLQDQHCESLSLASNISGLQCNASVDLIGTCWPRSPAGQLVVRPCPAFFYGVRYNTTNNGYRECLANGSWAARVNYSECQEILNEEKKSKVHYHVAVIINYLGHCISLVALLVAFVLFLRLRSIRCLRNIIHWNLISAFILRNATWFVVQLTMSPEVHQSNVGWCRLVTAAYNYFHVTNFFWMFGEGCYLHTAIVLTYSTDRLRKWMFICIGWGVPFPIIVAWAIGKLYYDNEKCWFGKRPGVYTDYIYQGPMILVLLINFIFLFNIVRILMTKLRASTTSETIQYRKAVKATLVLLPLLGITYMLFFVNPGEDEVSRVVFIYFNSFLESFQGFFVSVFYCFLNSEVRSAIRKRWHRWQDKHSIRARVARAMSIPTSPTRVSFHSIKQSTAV
Kind of test: CRF1R agonist activity (EC50, Emax), called comparative CRF binding. Type of test: cell-based. In outline:
(§1)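 cAMP read-out: CRE-linked reporter (e.g. luciferase, CAT, GFP) or lysate cAMP in CRF1R- or CRF2R-expressing cells after peptide exposure; vehicle control comparison. Signal from any non-target CRFR subtracted.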

A further test has as its target T2, CRF2R (Homo sapiens, UniProt Q13324).
T2 sequence (Q13324 1-411): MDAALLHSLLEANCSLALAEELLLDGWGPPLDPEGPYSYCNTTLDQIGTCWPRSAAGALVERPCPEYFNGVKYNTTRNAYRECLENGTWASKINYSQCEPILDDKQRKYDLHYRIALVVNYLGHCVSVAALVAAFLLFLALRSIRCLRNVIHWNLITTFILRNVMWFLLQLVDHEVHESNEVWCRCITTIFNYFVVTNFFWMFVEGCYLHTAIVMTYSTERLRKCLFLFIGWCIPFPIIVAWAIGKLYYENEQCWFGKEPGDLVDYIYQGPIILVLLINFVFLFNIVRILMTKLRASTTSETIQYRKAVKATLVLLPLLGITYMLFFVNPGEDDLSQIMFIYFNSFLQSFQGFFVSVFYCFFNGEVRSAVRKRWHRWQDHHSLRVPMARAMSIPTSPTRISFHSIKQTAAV
Kind of test: CRF2R agonist activity (EC50, Emax), called comparative CRF binding. The test is classed as cell-based. In outline:
as §1

On to `CC[C@H](C)[C@H](NC(=O)[C@H](CCCNC(=N)N)NC(=O)[C@H](C)NC(=O)[C@H](CC(C)C)NC(=O)[C@H](CC(C)C)NC(=O)[C@H](CCCNC(=N)N)NC(=O)[C@H](C)NC(=O)[C@H](CC(N)=O)NC(=O)[C@H](CC(N)=O)NC(=O)[C@H](C)NC(=O)[C@H](C)NC(=O)[C@H](CCC(N)=O)NC(=O)[C@H](CCC(N)=O)NC(=O)[C@H](CCCCN)NC(=O)[C@H](CCC(=O)O)NC(=O)[C@H](CCCCN)NC(=O)[C@H](CCC(=O)O)NC(=O)[C@H](CCC(N)=O)NC(=O)[C@H](CCCCN)NC(=O)[C@H](CCC(=O)O)NC(=O)[C@@H](NC(=O)[C@H](CCC(=O)O)NC(=O)[C@@H](NC(=O)[C@@H](NC(=O)[C@H](CCCCN)NC(=O)[C@H](CCCNC(=N)N)NC(=O)[C@H](CC(C)C)NC(=O)[C@H](CC(C)C)NC(=O)[C@H](CCC(N)=O)NC(=O)[C@H](Cc1ccc(O)cc1)NC(=O)[C@@H]1CCCN1C(=O)[C@@H](NC(=O)[C@H](CC(=O)O)NC(=O)[C@@H](NC(=O)[C@H](CO)NC(=O)[C@@H](NC(=O)[C@@H]1CCCN1C(=O)[C@@H]1CCCN1C(=O)CNC(=O)[C@@H]1CCC(=O)N1)[C@@H](C)CC)[C@@H](C)CC)C(C)C)C(C)C)[C@@H](C)CC)[C@@H](C)CC)C(N)=O` [compound 375], for which the EC50 at CRF1R is at least 1000 nM; at CRF2R, 11.5 nM.

Turning to `CC[C@H](C)[C@H](NC(=O)[C@@H](NC(=O)[C@H](CC(=O)O)NC(=O)[C@H](CC(C)C)NC(=O)[C@H](CC(C)C)NC(=O)[C@H](CCCNC(=N)N)NC(=O)[C@H](C)NC(=O)[C@H](CC(N)=O)NC(=O)[C@H](CC(N)=O)NC(=O)[C@H](C)NC(=O)[C@H](C)NC(=O)[C@H](CCC(N)=O)NC(=O)[C@H](CCC(N)=O)NC(=O)[C@H](CCCCN)NC(=O)[C@H](CCC(=O)O)NC(=O)[C@H](CCCCN)NC(=O)[C@H](CCC(=O)O)NC(=O)[C@H](CCC(N)=O)NC(=O)[C@H](CCCCN)NC(=O)[C@H](CCC(=O)O)NC(=O)[C@@H](NC(=O)[C@H](CCC(=O)O)NC(=O)[C@@H](NC(=O)[C@@H](NC(=O)[C@H](CCCCN)NC(=O)[C@H](CCCNC(=N)N)NC(=O)[C@H](CC(C)C)NC(=O)[C@H](CC(C)C)NC(=O)[C@H](Cc1c[nH]cn1)NC(=O)[C@H](Cc1ccc(O)cc1)NC(=O)[C@@H]1CCCN1C(=O)[C@@H](NC(=O)[C@H](CC(=O)O)NC(=O)[C@@H](NC(=O)[C@H](CO)NC(=O)[C@@H](NC(=O)[C@@H]1CCCN1C(=O)[C@@H]1CCCN1C(=O)CNC(=O)[C@@H]1CCC(=O)N1)[C@@H](C)CC)[C@@H](C)CC)C(C)C)C(C)C)[C@@H](C)CC)[C@@H](C)CC)[C@@H](C)O)C(N)=O` [compound 376], the EC50 at CRF1R is at least 1000 nM; on CRF2R it was 52.5 nM.

Regarding `CC[C@H](C)[C@H](NC(=O)[C@H](CCCNC(=N)N)NC(=O)[C@H](C)NC(=O)[C@H](CC(C)C)NC(=O)[C@H](CC(C)C)NC(=O)[C@H](CCCNC(=N)N)NC(=O)[C@H](C)NC(=O)[C@H](CC(N)=O)NC(=O)[C@H](CC(N)=O)NC(=O)[C@H](C)NC(=O)[C@H](C)NC(=O)[C@H](CCC(N)=O)NC(=O)[C@H](CCC(N)=O)NC(=O)[C@H](CCCCN)NC(=O)[C@H](CCC(=O)O)NC(=O)[C@H](CCCCN)NC(=O)[C@H](CCC(=O)O)NC(=O)[C@H](CCC(N)=O)NC(=O)[C@H](CCCCN)NC(=O)[C@H](CCC(=O)O)NC(=O)[C@@H](NC(=O)[C@H](CCC(=O)O)NC(=O)[C@@H](NC(=O)[C@@H](NC(=O)[C@H](CCCCN)NC(=O)[C@H](CCCNC(=N)N)NC(=O)[C@H](CC(C)C)NC(=O)[C@H](CC(C)C)NC(=O)[C@H](Cc1ccc(O)cc1)NC(=O)[C@@H](NC(=O)[C@@H]1CCCN1C(=O)[C@@H](NC(=O)[C@H](CC(=O)O)NC(=O)[C@@H](NC(=O)[C@H](CO)NC(=O)[C@@H](NC(=O)[C@@H]1CCCN1C(=O)[C@@H]1CCCN1C(=O)CNC(=O)[C@@H]1CCC(=O)N1)[C@@H](C)CC)[C@@H](C)CC)C(C)C)[C@@H](C)CC)C(C)C)[C@@H](C)CC)[C@@H](C)CC)C(N)=O` [compound 379], the EC50 was at least 1000 nM at CRF1R and 70.5 nM on CRF2R.

Take `CC[C@H](C)[C@H](NC(=O)[C@@H](NC(=O)[C@H](CC(=O)O)NC(=O)[C@H](CC(C)C)NC(=O)[C@H](CC(C)C)NC(=O)[C@H](CCCNC(=N)N)NC(=O)[C@H](C)NC(=O)[C@H](CC(N)=O)NC(=O)[C@H](CC(N)=O)NC(=O)[C@H](C)NC(=O)[C@H](C)NC(=O)[C@H](CCC(N)=O)NC(=O)[C@H](CCC(N)=O)NC(=O)[C@H](CCCCN)NC(=O)[C@H](CCC(=O)O)NC(=O)[C@H](CCCCN)NC(=O)[C@H](CCC(=O)O)NC(=O)[C@H](CCC(N)=O)NC(=O)[C@H](CCCCN)NC(=O)[C@H](CCC(=O)O)NC(=O)[C@@H](NC(=O)[C@H](CCC(=O)O)NC(=O)[C@@H](NC(=O)[C@@H](NC(=O)[C@H](CCCCN)NC(=O)[C@H](CCCNC(=N)N)NC(=O)[C@H](CC(C)C)NC(=O)[C@H](CC(C)C)NC(=O)[C@H](CCC(N)=O)NC(=O)[C@H](Cc1ccccc1)NC(=O)[C@@H]1CCCN1C(=O)[C@@H](NC(=O)[C@H](CC(=O)O)NC(=O)[C@@H](NC(=O)[C@H](CO)NC(=O)[C@@H](NC(=O)[C@@H]1CCCN1C(=O)[C@@H]1CCCN1C(=O)CNC(=O)[C@@H]1CCC(=O)N1)[C@@H](C)CC)[C@@H](C)CC)C(C)C)C(C)C)[C@@H](C)CC)[C@@H](C)CC)[C@@H](C)O)C(N)=O` [compound 382]: the EC50 at CRF1R (read-out: CRF1R EC50) was at least 1000 nM; on CRF2R (read-out: CRF2R EC50), 39.5 nM.
